According to patent US11400106B2, “Methods for inhibiting microbe growth” (priority 2018, dated 2022):

Legend:
S. aureus = S. aureus (Newman strain) (MSSA)

Question: What does the source list for `CC[C@H](C)[C@H](N)C(=O)N[C@@H](CC(C)C)C(=O)N1CCC[C@H]1C(=O)N[C@@H](Cc1c[nH]c2ccccc12)C(=O)N[C@@H](CCCCN)C(=O)N[C@@H](Cc1c[nH]c2ccccc12)C(=O)N1CCC[C@H]1C(=O)N[C@@H](Cc1c[nH]c2ccccc12)C(=O)N[C@@H](Cc1c[nH]c2ccccc12)C(=O)N1CCC[C@H]1C(=O)N[C@@H](Cc1c[nH]c2ccccc12)C(=O)N[C@@H](CCCNC(=N)N)C(=O)N[C@@H](CCCNC(=N)N)C(N)=O` [Indolicidin]?
Answer: MIC in MHB (S. aureus): 128 µg/mL (≈ 67.1 µM); MIC in MHB + 25 mM bicarbonate (S. aureus): 8 µg/mL; enhancement of antimicrobial activity in the presence of bicarbonate (E. coli): 128 fold

Converted amounts (≈) assume the structure as drawn.
